Source: PubChem (ICCB-Longwood Screening Facility, Harvard Medical School)
HCMV UL50-53 inh: cytomegalovirus nuclear egress complex inhibition; HTRF UL50-UL53 interaction, normalized percent inhibition; inhibition, % (no concentration beside the values); 0.15% of 190,000 active; AID 1918969; in the data active means inhibition above about 27%, passing the limit was not always enough
GIV Gai3 FP: blocks GIV peptide binding to rat Galpha-i3. P08753. Galpha-i3/FITC-GIV peptide fluorescence polarization, 90 min; stronger effect = lower value; scaled: aluminum fluoride 0%, vehicle 100%. percent of control (FP), % (test concentration not listed). actives 0.42% (n = 210,000). AID 1224905;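 active means replicate mean at 85% of control or lower, very high polarization wells dropped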;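 further: wells of about 15 µL received 100 nL stock; the first replicate is given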
GIV-Gai FP conf: GIV-Galpha-i3 inhibition, FP confirmation | FITC-GIV peptide binding to Galphai3, fluorescence polarization; stronger effect = lower value | 38% of 580 active | fluorescence polarization, mP at 100 µM | shares compounds with GIV Gai3 FP;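 active means inhibition score of 15 or more, meaning 100 minus mean polarization as percent of control over three replicates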
GIV Gai AS conf: confirmation of inhibitors of GIV binding to human Galpha-i3; 39% of 580 active; AlphaScreen counts at 100 µM; shares compounds with GIV Gai3 FP; AlphaScreen Galphai3-GIV binding, purified proteins, 90 min; stronger effect = lower value;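 active means inhibition score at or above a set limit, where the score is 100 minus the three-replicate mean percent of control signal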
Each line names hits and unclear results; the compound was inactive in the other large screens (follow-up assays come after a bar, where they were run). Sampled rows, rich in hits. Any-hit rate of the full collection: about 0.43%.

CC(=O)Nc1ccc(NC(=O)c2ccco2)cc1	none
O=C(O)c1cc(NC(=O)c2ccc(NC(=O)c3ccco3)cc2)cc(C(=O)O)c1	GIV Gai3 FP 78.9 | GIV-Gai FP conf 64.1 | GIV Gai AS conf 22001
O=C(Nc1cccc(F)c1F)C1CCN(c2ncccn2)CC1	none | GIV-Gai FP conf inactive | GIV Gai AS conf inactive
Cc1ccc(NC(=O)C2CCN(c3ncccn3)CC2)cc1F	none
CC(=O)Nc1cc2c(cc1N)OCCO2	none (no result: GIV Gai3 FP)
O=C(NCCCO)Nc1ccc2nc(-c3ccco3)c(-c3ccco3)nc2c1	GIV Gai3 FP 80.8 | GIV-Gai FP conf 57.7 | GIV Gai AS conf 1698
O=C(Nc1ccc(N2CCOCC2)cc1)Nc1ccc2nc(-c3ccco3)c(-c3ccco3)nc2c1	none
Cc1cccc(NC(=O)c2ccco2)n1	none
Cc1cccc(NC(=O)C(F)(F)C(F)(F)C(F)(F)F)n1	GIV Gai3 FP 65.3 | GIV-Gai FP conf inactive | GIV Gai AS conf inactive
Cn1nc(C(=O)NN2CC(=O)NC2=O)c2ccccc2c1=O	none (no result: GIV Gai3 FP)
CN1c2ccccc2N(C)C1c1ccc(O)cc1	HCMV UL50-53 inh 67.8, GIV Gai3 FP 16.2 | GIV-Gai FP conf 31.4 | GIV Gai AS conf 16384
CN1C(=O)c2ccccc2N(C)C1c1ccc(F)cc1 (configuration not stated)	none
Cc1c(C(=O)N2CCN(C)CC2)sc2ncnc(N3CCc4ccccc4C3)c12	none (no result: HCMV UL50-53 inh)
CC(NC(=O)CN1CCN(C(=O)C2CCCO2)CC1)c1ccccc1 (configuration not stated)	none (no result: GIV Gai3 FP)
O=C(O)c1ccc(-c2nc(-c3ccc4c(c3)C(=O)c3cc([N+](=O)[O-])ccc3-4)c(-c3ccccc3)[nH]2)cc1	none (no result: HCMV UL50-53 inh)
O=C(/C=C/c1ccccc1)/C=C/c1ccccc1	GIV Gai3 FP 79.7 (no result: HCMV UL50-53 inh) | GIV-Gai FP conf 46.6 | GIV Gai AS conf 17701
O=C(O)/C=C/c1ccc(/C=C/C(=O)O)cc1	none
O=C(c1cc2cc(Cl)ccc2[nH]1)N1CCN(S(=O)(=O)c2ccc3[nH]c(=O)sc3c2)CC1	none (no result: HCMV UL50-53 inh)
COc1ccc2c(c1)N(C)/C(=C1/SC(=S)N(C)C1=O)S2	none | GIV-Gai FP conf inactive | GIV Gai AS conf inactive
COc1ccc2c(c1)N(C1CCCCC1)/C(=C1/SC(=S)N(C)C1=O)S2	none (no result: HCMV UL50-53 inh)
COc1ccc(Cl)cc1-c1nc(SCC(=O)N(CC(C)C)C2CCS(=O)(=O)C2)n[nH]1 (configuration not stated)	none (no result: GIV Gai3 FP)
CCc1ccc(NC(=O)C2=CC(c3ccc4c(c3)OCO4)=NS(=O)(=O)N2C)cc1	none
CN1C(C(=O)Nc2ccc(OC(F)(F)F)cc2)=CC(c2ccc3c(c2)OCO3)=NS1(=O)=O	GIV Gai3 FP 55.1 | GIV-Gai FP conf inactive | GIV Gai AS conf inactive
Cc1cc(C)nc(NC(c2cccc(F)c2)c2cc(C)sc2NC(=O)c2ccccc2)n1 (configuration not stated)	GIV Gai3 FP 68.6 | GIV-Gai FP conf inactive | GIV Gai AS conf inactive
Cc1cc(C)nc(NC(c2ccccc2)c2cc(C)sc2NC(=O)c2ccccc2)n1 (configuration not stated)	none
C/C(=C\C(=O)C(F)(F)F)NC1CCCCC1	none (no result: GIV Gai3 FP)
O=C(CCCN1CCSc2ccccc21)Nc1ccc(Br)cc1	none
O=C(c1ccc2c(=O)n(CCc3ccccc3)c(SCc3cccc([N+](=O)[O-])c3)nc2c1)N1CCOCC1	none (no result: HCMV UL50-53 inh)
Cc1ccc2[nH]c3c(=O)n(CCC(=O)N4CCN(c5ccccn5)CC4)cnc3c2c1	none
O=S(=O)(Nc1ccc(O)c(Sc2ncn[nH]2)c1)c1ccccc1	none (no result: HCMV UL50-53 inh)
O=C1C(Sc2ncn[nH]2)=C/C(=N/S(=O)(=O)c2ccc(Cl)cc2)c2ccccc21	GIV Gai3 FP 8.2 | GIV-Gai FP conf 17.5 | GIV Gai AS conf 4487
N#C/C(=C\c1ccccc1)C(=O)N1C(=O)c2ccccc2S1(=O)=O	none (no result: GIV Gai3 FP)
O=C1/C(=C/c2ccncc2)CCC/C1=C\c1ccncc1	GIV Gai3 FP 51.5 | GIV-Gai FP conf 51.1 | GIV Gai AS conf 18754
O=C1/C(=C/c2cccnc2)CCCC/C1=C\c1cccnc1	none (no result: GIV Gai3 FP)
COC(=O)CSc1nnc(C)c2c(C)n(-c3ccc(Cl)cc3)nc12	none
CN(C)c1ccc(/C=C/C=N/N=c2/sc3ccccc3n2C)cc1	none | GIV-Gai FP conf inactive | GIV Gai AS conf inactive
Cc1c(/C=N/N=c2\sc3ccccc3n2C)n(C)n(-c2ccccc2)c1=O	none (no result: GIV Gai3 FP)
Cc1ccsc1-c1nc(-c2cc3c(C)nn(-c4ccccc4)c3s2)no1	GIV Gai3 FP 41.4 | GIV-Gai FP conf inactive | GIV Gai AS conf inactive
Cc1nc(C)c(-c2nc(-c3cc4c(C)nn(-c5ccccc5)c4s3)no2)s1	none
COC(=O)CCn1cnc2onc(-c3cc(F)cc(F)c3)c2c1=O	GIV Gai3 FP 71.1 | GIV-Gai FP conf inactive | GIV Gai AS conf inactive
CC(C)NC(=O)CCn1cnc2onc(-c3cccc(F)c3)c2c1=O	none
Cc1cc2c3c(c(N)cc(S(=O)(=O)O)c3n1)C(=O)c1ccccc1-2	none (no result: HCMV UL50-53 inh)
Cc1cc2c3c(c(Br)cc(S(=O)(=O)O)c3n1)C(=O)c1ccccc1-2	GIV Gai3 FP 82.6 (no result: HCMV UL50-53 inh) | GIV-Gai FP conf 25.4 | GIV Gai AS conf 2617
N#Cc1ccccc1Cn1cc(C=C2C(=O)NC(=O)NC2=O)c2ccccc21	GIV Gai3 FP 63.5 | GIV-Gai FP conf inactive | GIV Gai AS conf inactive
O=C1NC(=O)/C(=C\c2cn(Cc3ccccc3F)c3ccccc23)N1	none (no result: HCMV UL50-53 inh)
COC(=O)c1ccc(NC(=O)Cn2cnc3c(sc4ncccc43)c2=O)cc1	none (no result: HCMV UL50-53 inh)
C=CCN(CC=C)Cc1ccc(C(=O)OC)o1	GIV Gai3 FP 80.5 | GIV-Gai FP conf inactive | GIV Gai AS conf inactive
COC(=O)c1ccc(CC#N)o1	none
COc1ccc(C(=O)N2c3c(OC)cccc3-c3c(ssc3=S)C2(C)C)cc1	none (no result: HCMV UL50-53 inh)
COc1ccc(-c2nc3c(=O)n(C)c(=O)nc-3n(C)n2)cc1OC	GIV Gai3 FP 57.3 | GIV-Gai FP conf 41.5 | GIV Gai AS conf 27053
COc1ccc(-c2c(-c3ccc(OC)c(OC)c3)c(C)n(C)c2C)cc1OC	none
Cn1nc(-c2ccc(F)cc2)nc2c(=O)n(C)c(=O)nc1-2	HCMV UL50-53 inh 83.1, GIV Gai3 FP 14.8 | GIV-Gai FP conf 27.8 | GIV Gai AS conf inactive
COc1ccc(-n2ccc(=O)c(-c3nc(-c4ccc(F)cc4)no3)n2)cc1	none (no result: HCMV UL50-53 inh)
Cc1csc(-c2cc(S(=O)(=O)N3CCCCC3)cn2CC(=O)N2CCCC2)n1	none (no result: HCMV UL50-53 inh)
Cc1cc(C)n(CCCNC(=O)c2ccccc2NC(=O)c2ccco2)n1	none (no result: GIV Gai3 FP)
CC1=NN(c2ccccc2)C(=O)C1=C1SCCS1	none
CC1=NN(c2ccccc2)C(=O)/C1=C1/C(=O)N(c2ccccc2)N=C1C	HCMV UL50-53 inh 105.5, GIV Gai3 FP 60.9 | GIV-Gai FP conf 53 | GIV Gai AS conf 17646
O=C(C1CCN(c2nnc(-n3cccc3)s2)CC1)N1CCN(c2ncccn2)CC1	none
CCn1ncc(NC(=O)Cc2ccc(C)cc2)c(N2CCCCC2)c1=O	none (no result: HCMV UL50-53 inh)
O=C1c2ccccc2C(=O)c2c1ccc(C(=O)Nc1cccc(Br)c1)c2[N+](=O)[O-]	none
CC(C)(C)C(=O)C1C2C3COC(O3)C(=O)C2C2C=Cc3ccccc3N21 (configuration not stated)	none
CC(=O)[C@@H]1[C@H]2C3COC(O3)C(=O)[C@@H]2[C@H]2C=Cc3ccccc3N21 (some centres not stated)	GIV Gai3 FP 80.2 (no result: HCMV UL50-53 inh) | GIV-Gai FP conf 50.6 | GIV Gai AS conf 7239
